Earlier results on 1 substance are cited in US8778643B2, “Methods for increasing lipid levels and producing triacylglycerols in algae” (priority 2012, dated 2014).

Sequences of proteins named here, by UniProt entry; tags and fusion partners are left off. A line that says so, or that is headed by a name, gives the form on record, which may keep a tag or linker.
UniProt P30305, other isoform, or with tags, fused parts or gaps: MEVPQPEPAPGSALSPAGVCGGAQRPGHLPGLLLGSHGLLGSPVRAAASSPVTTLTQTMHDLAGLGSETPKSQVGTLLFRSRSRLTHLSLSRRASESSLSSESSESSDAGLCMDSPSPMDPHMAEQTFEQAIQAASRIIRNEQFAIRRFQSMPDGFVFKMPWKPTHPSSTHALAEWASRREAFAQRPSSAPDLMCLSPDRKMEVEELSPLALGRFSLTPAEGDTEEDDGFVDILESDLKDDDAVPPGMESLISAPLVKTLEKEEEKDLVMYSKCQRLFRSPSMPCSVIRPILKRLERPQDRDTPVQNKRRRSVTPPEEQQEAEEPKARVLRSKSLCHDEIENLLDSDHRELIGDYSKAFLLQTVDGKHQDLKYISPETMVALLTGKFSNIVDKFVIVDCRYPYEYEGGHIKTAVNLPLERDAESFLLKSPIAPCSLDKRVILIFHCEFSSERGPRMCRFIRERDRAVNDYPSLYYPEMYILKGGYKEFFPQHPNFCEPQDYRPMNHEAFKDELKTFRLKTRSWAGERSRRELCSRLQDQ

One data set addresses CDC25 phosphatase 25B3 (Homo sapiens, UniProt P30305). The following applies: cited from earlier work.
Another data set deals with CDC25 phosphatase 25B2 (Homo sapiens, UniProt P30305). To be noted: cited from earlier work.

For “6-Chloro-7-(2-morpholin-4-yl-ethylamino)-quinoline-5,8-dione [CDC25 Phosphatase Inhibitor I]”, the concentration for half-maximal inhibition (IC50) (commonly the point on the concentration scale where inhibition reaches its midpoint) at CDC25 phosphatase 25B3 was 6.3 µM; on CDC25 phosphatase 25B2, 3.9 µM.
